Drawing on patent US20260041702A1, this text covers log 2 (FC), TRFE group against d34CCN2 group (log2 fold change) for one substance.

Protein sequences, listed by entry. Tags and fused reporters are not part of them.
UniProt P02786, whole entry: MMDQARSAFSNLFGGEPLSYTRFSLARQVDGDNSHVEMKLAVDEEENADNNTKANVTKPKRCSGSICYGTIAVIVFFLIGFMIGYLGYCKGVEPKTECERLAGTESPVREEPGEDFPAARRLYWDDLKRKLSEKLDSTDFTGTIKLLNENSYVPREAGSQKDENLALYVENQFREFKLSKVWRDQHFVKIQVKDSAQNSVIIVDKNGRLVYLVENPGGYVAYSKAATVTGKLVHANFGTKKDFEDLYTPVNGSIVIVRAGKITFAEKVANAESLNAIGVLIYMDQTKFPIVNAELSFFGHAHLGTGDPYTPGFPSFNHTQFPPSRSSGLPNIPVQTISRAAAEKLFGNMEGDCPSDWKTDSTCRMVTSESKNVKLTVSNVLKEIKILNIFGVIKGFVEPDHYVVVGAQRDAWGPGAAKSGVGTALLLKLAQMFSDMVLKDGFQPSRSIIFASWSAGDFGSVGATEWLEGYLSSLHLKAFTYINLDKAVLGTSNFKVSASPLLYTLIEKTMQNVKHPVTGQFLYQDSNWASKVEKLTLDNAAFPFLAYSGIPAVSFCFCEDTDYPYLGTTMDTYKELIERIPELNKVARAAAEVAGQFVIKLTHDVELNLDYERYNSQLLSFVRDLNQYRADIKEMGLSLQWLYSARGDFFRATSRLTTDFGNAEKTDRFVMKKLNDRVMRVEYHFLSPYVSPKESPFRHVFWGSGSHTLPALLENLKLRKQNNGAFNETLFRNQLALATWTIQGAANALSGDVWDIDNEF

In this assay the target is TRFE receptor, TRF1, on HEK293A cells (human) (UniProt P02786). The assay can be described thus: HATRIC-LRC (LRC-TriCEPS) ligand-receptor capture on HEK293A cells, LC-MS/MS; positive control of the screen.

As to “transferrin (TRFE) coupled to TriCEPS v3.0 (ligand)”, the log 2 (FC), TRFE group against d34CCN2 group (log2 fold change) was -3.35.
